Experimental findings from US20230287003A1, “BCL6 INHIBITORS” (Cancer Research Technology Limited, priority 2018, published 2023) are described below.

This experiment has as its target human BCL6 BTB domain (Trx-6×His-BCL6) / BCOR-AF633 peptide (Homo sapiens (Human), UniProt P41182). The experiment is described as follows: HTRF assay. The format is binding.

Consider `Cn1c(=O)c2c(c3cc(Nc4ccnc(Cl)c4C#N)ccc31)N[C@@H](C1CC1)CCO2` [Example 1d, (R)-2-chloro-4((2-cyclopropyl-7-methyl-6-oxo-1,2,3,4,6,7-hexahydro-[1,4]oxazepino[2,3-c]quinolin-10-yl)amino)nicotinonitrile], for which the “HTRF avg pIC50 (1 nM)” value was determined as 7.41.
